Experimental data taken from publication PMC8765437, “GSK3640254 Is a Novel HIV-1 Maturation Inhibitor with an Optimized Virology Profile” (Antimicrobial Agents and Chemotherapy, 2022).

Tests used:
[1] = test system: NLRepRlucP373S-based viruses; format: cell-based, HIV-1; details: Wild type
[2] = test system: HIV-1 Gag VLPs; format: binding; details: Wild type VLP
Method: In a 96-well white low-binding plate (Corning; Corning, NY), 0.5 to 1.2 μg of WT or other polymorphic or mutant VLPs was mixed in 40 μl of PBS with SPA beads (100 μg/well, PVT-WGA SPA beads; PerkinElmer) for 1 h at room temperature, and then the volume was increased to 200 μl/well by the addition of binding buffer (100 mM Tris [pH 6.5], 2 mM EDTA, 0.03% Tween 20, and 5 mM MgCl2). Serial dilutions of ^3H-MIs were then added to wells. The final concentration of DMSO in the assay was 10% (vol/vol). After an approximately 4-h equilibration at room temperature, bound ^3H-MIs were measured using a Top Count or Microbeta2 plate reader (PerkinElmer). Kd values were calculated by fitting the data using GraphPad Prism v5.1.

C=C(C)[C@@H]1CC[C@]2(NCCN3CCS(=O)(=O)CC3)CC[C@]3(C)[C@H](CC[C@@H]4[C@@]5(C)CC=C(C6=CC[C@@](CF)(C(=O)O)CC6)C(C)(C)[C@@H]5CC[C@]43C)[C@@H]12 [GSK’254]
Serum effect (±HS EC50 ratio) [1]: 8.8 | Relative GSK’254/GSK’795 affinity [2]: 2.1
